This is a selection; strong and weak results do not stand in their true shares. Activity calls are given as the source filed them.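 How the source made its calls: active means activation above the run cutoff, the mean activation of all test compounds plus 3 SD (cut at about 40% in these data); inactive means the rest.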
Test: nonselective calcium activators in parental CHO-K1 cells, primary screen, counter-screen for M1 PAM project, cell-based, Fluo-8 calcium fluorescence, full deck, 1536-well (AID 602247);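 further: peak over basal fluorescence ratio in a 140 s read after ATP addition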
Details: parental CHO-K1, ATP EC20, Fluo-8 calcium fluorescence; at 3 µM; stronger effect = higher value; 0% at ATP EC20, 100% at ATP max

Question: Which activation does the source give for Cc1cc(C)cc(OP(C)(=O)Nc2ccc(C)cc2C)c1 (centres undefined) here?
Answer: inactive: 6.76%

Question: For CCOC(=O)c1ccc(NP(C)(=O)Oc2cc(C)cc(C)c2)cc1 (centres undefined), which activation is on record?
Answer: inactive: -9.62%

Question: With COc1cc(C(=O)NCC2(N3CCOCC3)CCCCC2)cc(Cl)c1OC(C)C as the molecule, how does the activation read?
Answer: inactive: -5.97%

Question: Which activation does the source give for COc1ccccc1OP(C)(=O)Nc1cccc(Br)c1 (centres undefined) here?
Answer: inactive: 14.3%

Question: With CP(=O)(Nc1cccc(Br)c1)Oc1ccccc1 (centres undefined) as the molecule, how does the activation read?
Answer: inactive: 19.1%

Question: With Cc1cc(C)cc(OP(C)(=O)Nc2ccccn2)c1 (centres undefined) as the molecule, how does the activation read?
Answer: inactive: 4.48%

Question: With Cc1ccc(C)c(NP(C)(=O)Oc2ccccc2)c1 (centres undefined) as the molecule, how does the activation read?
Answer: inactive: 5.15%

Question: For O=C(O)c1cccc(Nc2c([N+](=O)[O-])cc([N+](=O)[O-])cc2[N+](=O)[O-])c1, which activation is on record?
Answer: inactive: 18.5%

Question: For CC1=NCCc2c1[nH]c1ccccc21.O=[N+]([O-])c1cc([N+](=O)[O-])c(O)c([N+](=O)[O-])c1, which activation is on record?
Answer: inactive: 18.4%

Question: For O=[N+]([O-])c1cc([N+](=O)[O-])c(Nc2nnnn2CCO)c([N+](=O)[O-])c1, which activation is on record?
Answer: inactive: -2.18%

Question: For CC1=C2N=C(C=C3N=C(C(C)=C4[N-][C@@](C)([C@@H]5N=C1[C@](C)(CCC(=O)NC[C@@H](C)OP(=O)([O-])O[C@H]1[C@@H](O)[C@@H](n6cnc7cc(C)c(C)cc76)O[C@@H]1CO)[C@H]5CC(N)=O)[C@@](C)(CC(N)=O)[C@@H]4CCC(N)=O)[C@@](C)(CC(N)=O)[C@@H]3CCC(N)=O)C(C)(C)[C@@H]2CCC(N)=O.[C-]#N.[Co+3], which activation is on record?
Answer: inactive: 25.3%

Question: For CN(C)C1(CNC(=O)c2ccc(S(C)(=O)=O)cc2)CCCCC1, which activation is on record?
Answer: inactive: 10.2%

Question: For CCOC(=O)C(CC)C1=NC(C)(C)Cc2ccccc21.O=[N+]([O-])c1cc([N+](=O)[O-])c(O)c([N+](=O)[O-])c1 (centres undefined), which activation is on record?
Answer: inactive: 1.84%

Question: Which activation does the source give for CP(=O)(Nc1ccc(SC(F)(F)F)cc1)Oc1ccccc1 (centres undefined) here?
Answer: inactive: -2.83%

Question: With CCCOc1ccc(NP(C)(=O)Oc2ccc(Cl)cc2)cc1 (centres undefined) as the molecule, how does the activation read?
Answer: inactive: 14.6%

Question: With COc1ccc(-c2ccccn2)cc1.O=[N+]([O-])c1cc([N+](=O)[O-])c(O)c([N+](=O)[O-])c1 as the molecule, how does the activation read?
Answer: inactive: 14.4%

Question: With CN1CCCCC1COC(=O)C1(O)c2ccccc2CCc2ccccc21 (centres undefined) as the molecule, how does the activation read?
Answer: inactive: 16.4%

Question: With COc1ccccc1OP(C)(=O)Nc1c(C)cccc1C (centres undefined) as the molecule, how does the activation read?
Answer: inactive: 30.9%

Question: For CN(Cc1cccnc1)C(=O)COc1ccc(Cl)c(Cl)c1.O=[N+]([O-])c1cc([N+](=O)[O-])c(O)c([N+](=O)[O-])c1, which activation is on record?
Answer: inactive: 8.92%

Question: Which activation does the source give for O=[N+]([O-])c1cc([N+](=O)[O-])c(-n2nnc3ccccc32)c([N+](=O)[O-])c1 here?
Answer: inactive: -8.67%

Question: For Cc1nc2ccc3ccccc3c2s1.O=[N+]([O-])c1cc([N+](=O)[O-])c(O)c([N+](=O)[O-])c1, which activation is on record?
Answer: inactive: 23.2%

Question: For O=[N+]([O-])c1cc([N+](=O)[O-])c(-c2cnn(-c3ccccc3)c2)c([N+](=O)[O-])c1, which activation is on record?
Answer: inactive: -6.74%

Question: Which activation does the source give for CCc1ccc(OP(C)(=O)N2CCN(c3ccc([N+](=O)[O-])cc3)CC2)cc1 (centres undefined) here?
Answer: inactive: -1.77%

Question: With CP(=O)(NC(=O)Nc1ccccc1)Oc1ccccc1 (centres undefined) as the molecule, how does the activation read?
Answer: inactive: -11.7%

Question: With Cc1cc(C)cc(OP(C)(=O)Nc2ccc(SC(F)(F)F)cc2)c1 (centres undefined) as the molecule, how does the activation read?
Answer: inactive: -7.78%

Question: Which activation does the source give for CP(=O)(Nc1ccc(SC(F)(F)F)cc1)Oc1ccc(Cl)cc1 (centres undefined) here?
Answer: inactive: 6.36%

Question: For Cc1cccc(C)c1OP(C)(=O)Nc1ccc(SC(F)(F)F)cc1 (centres undefined), which activation is on record?
Answer: inactive: 15%

Question: For Cc1ccc(Nc2c([N+](=O)[O-])cc([N+](=O)[O-])cc2[N+](=O)[O-])cc1, which activation is on record?
Answer: inactive: 4.33%

Question: Which activation does the source give for CP(=O)(Oc1ccccc1)OC(c1ccccc1)C(F)(F)F (centres undefined) here?
Answer: inactive: -2.56%

Question: With CP(=O)(Nc1ccccn1)Oc1ccc(Cl)cc1 (centres undefined) as the molecule, how does the activation read?
Answer: inactive: 20.5%

Question: Which activation does the source give for CCOP(C)(=S)SCC(=O)NC(C)C(=O)O (centres undefined) here?
Answer: inactive: 10.4%

Question: Which activation does the source give for O=[N+]([O-])c1cc([N+](=O)[O-])c(O)c([N+](=O)[O-])c1.c1ccc(Oc2ccncc2)cc1 here?
Answer: inactive: -1.02%

Question: With CCOC(=O)c1ccc(NP(C)(=O)Oc2ccc(OC)cc2)cc1 (centres undefined) as the molecule, how does the activation read?
Answer: inactive: 8.58%

Question: For CCCCOc1ccc(C(=O)NCC2(N3CCCCC3)CCCCC2)cc1OC, which activation is on record?
Answer: inactive: 19.4%

Question: For COc1ccccc1OP(C)(=O)Nc1ccccc1 (centres undefined), which activation is on record?
Answer: inactive: -13%

Question: Which activation does the source give for CP(=O)(Nc1ccccc1Br)Oc1ccccc1 (centres undefined) here?
Answer: inactive: 20.9%

Question: With CP(=S)(Nn1cnnc1)Oc1ccccc1 (centres undefined) as the molecule, how does the activation read?
Answer: inactive: 3.95%

Question: Which activation does the source give for CC(C)(C)c1ccc(OP(C)(=O)Nc2ccc(SC(F)(F)F)cc2)cc1 (centres undefined) here?
Answer: inactive: 11.3%

Question: Which activation does the source give for Cc1cccc(C)c1OP(C)(N)=O (centres undefined) here?
Answer: inactive: -7.54%

Question: For O=[N+]([O-])c1ccc2c(c1)C=Nc1ccccc1O2, which activation is on record?
Answer: inactive: -13.3%

Question: With O=[N+]([O-])c1cc([N+](=O)[O-])c(Nc2cccnc2)c([N+](=O)[O-])c1 as the molecule, how does the activation read?
Answer: inactive: -9.25%

Question: Which activation does the source give for COc1cc(C(=O)NCC2(N3CCOCC3)CCCCC2)ccc1OCC(C)C here?
Answer: inactive: 16.5%

Question: For COc1ccccc1OP(C)(=O)Nc1cc(Cl)ccc1C (centres undefined), which activation is on record?
Answer: inactive: 14.3%

Question: For COc1ccc(OP(C)(=O)Nc2cccc(F)c2)cc1 (centres undefined), which activation is on record?
Answer: inactive: -1.1%

Question: Which activation does the source give for Cc1cc(C)cc(OP(C)(N)=O)c1 (centres undefined) here?
Answer: inactive: -4.31%

Question: For CCOC(=O)c1ccc(NP(C)(=O)Oc2ccccc2)cc1 (centres undefined), which activation is on record?
Answer: inactive: 25.1%

Question: With COc1ccccc1OP(C)(=O)Nc1ccc(C)cc1 (centres undefined) as the molecule, how does the activation read?
Answer: inactive: 20.4%

Question: Which activation does the source give for Cc1ccc(NP(C)(=O)Oc2ccccc2)c(C)c1 (centres undefined) here?
Answer: inactive: 30.2%

Question: For CCN(CC)CCCOC(=O)C(O)(c1ccccc1)c1ccccc1, which activation is on record?
Answer: inactive: -5.84%

Question: For COc1ccccc1-c1ccccn1.O=[N+]([O-])c1cc([N+](=O)[O-])c(O)c([N+](=O)[O-])c1, which activation is on record?
Answer: inactive: -1.74%

Question: For CN(C)CCOC(=O)C(O)(c1ccccc1)C1CCCC1 (centres undefined), which activation is on record?
Answer: inactive: 10.9%

Question: With COc1ccc(OP(C)(=O)Nc2ccccn2)cc1 (centres undefined) as the molecule, how does the activation read?
Answer: inactive: 18.2%

Question: With COc1ccccc1OP(C)(=O)Nc1ccc(Br)cc1 (centres undefined) as the molecule, how does the activation read?
Answer: inactive: 1.53%

Question: Which activation does the source give for CCc1ccc(OP(C)(=O)O)cc1 here?
Answer: inactive: -10.4%

— PubChem BioAssay AID602247 (The Scripps Research Institute Molecular Screening Center, 2012)
